Chains of the proteins cited; added tags and fusions are not shown.
UniProt P29275, whole entry: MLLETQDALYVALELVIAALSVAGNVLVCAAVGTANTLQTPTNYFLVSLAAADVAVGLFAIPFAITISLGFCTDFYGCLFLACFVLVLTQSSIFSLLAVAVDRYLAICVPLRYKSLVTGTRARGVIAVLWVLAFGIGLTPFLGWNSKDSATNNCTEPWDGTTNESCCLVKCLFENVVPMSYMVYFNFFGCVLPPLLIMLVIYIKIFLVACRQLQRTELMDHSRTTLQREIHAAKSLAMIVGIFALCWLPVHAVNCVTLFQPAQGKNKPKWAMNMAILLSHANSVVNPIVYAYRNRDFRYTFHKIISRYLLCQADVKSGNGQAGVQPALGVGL
UniProt P0DMS8, whole entry: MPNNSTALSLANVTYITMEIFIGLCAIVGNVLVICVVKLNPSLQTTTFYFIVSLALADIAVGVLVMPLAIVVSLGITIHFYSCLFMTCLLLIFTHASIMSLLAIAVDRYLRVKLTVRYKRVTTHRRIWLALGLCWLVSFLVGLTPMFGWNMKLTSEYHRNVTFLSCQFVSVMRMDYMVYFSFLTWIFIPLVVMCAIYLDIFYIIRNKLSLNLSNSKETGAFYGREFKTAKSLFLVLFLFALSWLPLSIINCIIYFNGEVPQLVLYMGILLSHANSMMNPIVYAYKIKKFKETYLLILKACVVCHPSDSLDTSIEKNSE

In US6686366B1, “Compounds specific to adenosine A3 receptor and uses thereof” (OSI Pharmaceuticals, Inc., priority 1998, dated 2004):

Key:
[1] = target: human A2b receptor subtype (Homo sapiens, UniProt P29275); assay: Adenosine 2b receptor subtype competition radioligand binding, [3H]DPCPX, HEK293 membranes; settings: Table 13; concentration not given
[2] = target: human A3 receptor subtype (Homo sapiens, UniProt P0DMS8); assay: Adenosine 3 receptor competition radioligand binding, [125I]AB-MECA, HEK293 membranes; settings: read-out: Binding Ki (nM) A3; Table 13

Binding A2b, value given in % [1]: 30% | Ki [2]: 9.9 nM
SMILES: Cc1[nH]c2nc(-c3ccccc3)nc(N[C@H]3CC[C@H](O)CC3)c2c1C
